Assay results published in ChEMBL document CHEMBL3603746, “Discovery of New H2S Releasing Phosphordithioates and 2,3-Dihydro-2-phenyl-2-sulfanylenebenzo[d][1,3,2]oxazaphospholes with Improved Antiproliferative Activity” (J Med Chem, 2015).

Key:
[1] = Induction of H2S release in 10% PBS:MeCN solution at 5 mM incubated at 37 degC in dark condition measured at 96 hrs by 2, 6-dansyl azide probed-based fluorescence assay relative to GYY4137; settings: buffer, 5000 µM
[2] = Induction of H2S release in 10% PBS:MeCN solution at 5 mM incubated at 37 degC in dark condition measured at 96 hrs by 0.2 mM 2, 6-dansyl azide probed-based fluorescence assay relative to control; settings: buffer, 5000 µM
Hepatocyte = test: Toxicity in transforming growth factor alpha transgenic mouse hepatocytes at 100 uM after 24 hrs by CellTiter-Glo cell viability assay
[3] = Induction of H2S release in 10% PBS:MeCN solution at 5 mM incubated at 22 degC in dark condition measured at 96 hrs by 2, 6-dansyl azide probed-based fluorescence assay relative to GYY4137; settings: buffer, 5000 µM

Row | Compound | fold change (FC) [1] | %max [2] [%] | Activity (Hepatocyte) | fold change (FC) [3]
1 | C1COCCN1.COc1ccc(OP(=S)(S)c2ccc(OC)cc2)cc1 (configuration not stated) | 0.1 | 0.31 | Non-toxic | 0.1
2 | C1COCCN1.COc1ccc(P(=S)(S)Oc2ccc(F)cc2F)cc1 (configuration not stated) | 0.1 | 0.31 | Non-toxic | 0.2
3 | C1COCCN1.COc1ccc(P(=S)(S)Oc2ccccc2)cc1 (configuration not stated) | 0.1 | 0.41 | Non-toxic | 0.1
